In PubChem BioAssay AID624466 (The Scripps Research Institute Molecular Screening Center, 2012):
This is a selection; strong and weak results do not stand in their true shares. Activity calls are given as the source filed them.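 The calls were made as follows: active = inhibition above a per-plate cutoff, the mean inhibition of test compounds on that plate plus 3 SD (cut at about 49% in these data); inactive = the rest.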

Sequences of proteins named here, by UniProt entry; tags and fusion partners are left off. A change or cut given only in a name is not applied to a line headed by its entry.
UniProt Q96RJ0: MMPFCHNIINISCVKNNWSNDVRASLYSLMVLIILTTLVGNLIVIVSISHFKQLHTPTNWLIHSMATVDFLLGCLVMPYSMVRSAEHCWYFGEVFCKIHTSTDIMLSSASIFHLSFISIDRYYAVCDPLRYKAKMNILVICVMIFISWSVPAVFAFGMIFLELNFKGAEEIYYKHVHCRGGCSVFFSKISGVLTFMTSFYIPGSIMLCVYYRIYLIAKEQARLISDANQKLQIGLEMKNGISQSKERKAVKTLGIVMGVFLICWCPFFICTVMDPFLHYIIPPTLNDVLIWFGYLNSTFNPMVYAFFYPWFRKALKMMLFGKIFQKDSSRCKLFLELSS

What follows are molecules tested against Trace amine-associated receptor 1 (Homo sapiens) (UniProt Q96RJ0) (assay: human TAAR1 antagonists, primary screen, Fluo-8 calcium fluorescence, CHO RD-HGA16 cells (AID 624466;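 also: 0% = DMSO plus EC80 beta-PEA response and 100% = DMSO alone without agonist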)). Details: CHO RD-HGA16 TAAR1, Fluo-8 calcium fluorescence, antagonist; at 3 µM; hits give high values.

| SMILES | inhibition |
| --- | --- |
| CC(C)NC(=O)NP(=O)(Oc1ccccc1)Oc1ccccc1 | inactive: 11.8% |
| O=C(OC1CN2CCC1CC2)c1cccc2[nH]cnc12 (stereo not given) | inactive: -6.29% |
| CCN(CC)C(=S)SC(NC=O)C(Cl)(Cl)Cl (stereo not given) | inactive: 2.55% |
| COC(=O)C1(C)COP(=O)(N2CCCCCC2)OC1 (stereo not given) | inactive: 2.36% |
| CC(C)c1ccc(OP(=O)(Nc2ccccn2)Oc2ccccc2F)cc1 (stereo not given) | inactive: 6.2% |
| ClCCSc1nnc(-c2cccnc2)o1 | inactive: 2.29% |
| Cc1ccc2nc3c(c(C)c2c1)CC(C(Cl)Cl)S3 (stereo not given) | inactive: -1.18% |
| [N-]=[N+]=NC1CCCCC1NC(=O)c1cc([N+](=O)[O-])cc([N+](=O)[O-])c1 (stereo not given) | inactive: -3.5% |
| Cc1ccc(OP(=O)(Nc2ccc([N+](=O)[O-])cn2)Oc2ccc(C)cc2)cc1 | inactive: -14% |
| O=[N+]([O-])c1ccc(-c2cc([N+](=O)[O-])c(O)c([N+](=O)[O-])c2)cc1 | inactive: -9.77% |
| COc1cc(C(=O)NCC2(N3CCOCC3)CCCCC2)ccc1OCC(C)C | inactive: -10.3% |
| O=[As](O)(c1ccc(O)cc1)c1ccccc1O | inactive: -25.1% |
| C[As](=O)(O)c1cccc(C(=O)O)c1 | inactive: -12.9% |
| COc1ccc(N/C(=N/P(=O)(N2CCOCC2)N2CCOCC2)N2CCOCC2)cc1 | inactive: -30.7% |
| O=[N+]([O-])c1cc(Oc2ccc([N+](=O)[O-])cc2C(F)(F)F)cc([N+](=O)[O-])c1 | inactive: -17% |
| COc1cc(I)ccc1[As](=O)(O)O | inactive: -25.4% |
| COc1ccc2nc(NP(=O)(c3ccccc3)c3ccccc3)sc2c1 | inactive: 8.61% |
| O=P1(N(CCCl)CCCl)Nc2ccccc2N1 | inactive: -5.03% |
| O=P1(N(CCCl)CCCl)OCCCN1CCCl (stereo not given) | inactive: 1.8% |
| Cc1cc(=O)[nH]c(N[N+](=O)[O-])n1 | inactive: 8.09% |
| O=C(OC1CN2CCC1CC2)C12CC3CC(CC(C3)C1)C2 (stereo not given) | inactive: -19.6% |
| Cc1c2c(nc3ccccc13)SC(C(Cl)Cl)C2 (stereo not given) | inactive: 6.49% |
| CCC(C)N(CC(C)C)C(=S)SC(NC(C)=O)C(Cl)(Cl)Cl (stereo not given) | inactive: -14.6% |
| CCOC(=O)c1ccc(NC(=O)C(C)(CCl)SC)cc1 (stereo not given) | inactive: -10.3% |
| O=C(OC1CN2CCC1CC2)c1cccc([N+](=O)[O-])c1 (stereo not given) | inactive: 8.14% |

| SMILES | inhibition |
| --- | --- |
| O=C(Nc1ccncc1[N+](=O)[O-])c1ccc([N+](=O)[O-])cc1[N+](=O)[O-] | inactive: -4.97% |
| O=C(COc1ccccc1)OC1CN2CCC1CC2 (stereo not given) | inactive: 13.2% |
| O=C(O)C(=O)c1ccc(N(CCCl)CCCl)cc1 | inactive: -0.94% |
| COC(=O)C1(C)COP(=O)(N2CCCC2)OC1 (stereo not given) | inactive: -23% |
| COP1(=S)c2c(C)nn(CCC#N)c2N=C(c2ccc(F)cc2)N1C (stereo not given) | inactive: -10.9% |
| O=[N+]([O-])c1ccc(Nc2ccc(Oc3ccc([N+](=O)[O-])cc3[N+](=O)[O-])cc2)c([N+](=O)[O-])c1 | inactive: 0.66% |
| O=P(Nc1ccccn1)(c1cccc2ccccc12)c1cccc2ccccc12 | inactive: -0.39% |
| Cc1cc(SC(NC=O)C(Cl)(Cl)Cl)ncn1 (stereo not given) | inactive: 6.93% |
| CCOC(=O)Nc1cccc([As](=O)(O)O)c1 | inactive: -5.94% |
| Cc1cc(SC(NC(=O)c2ccccc2)C(Cl)(Cl)Cl)nc(C(C)C)n1 (stereo not given) | inactive: -7.87% |
| CCCCOc1ccc(C(=O)NCC2(N3CCCCC3)CCCCC2)cc1OC | inactive: -10.4% |
| COP(=O)(OC)N1CC1c1ccccc1 (stereo not given) | inactive: -11.6% |
| CC1CCNP(=O)(N(CCCl)CCCl)O1 (stereo not given) | inactive: -19.4% |
| CCOC(=O)Nc1ccc([As](=O)(O)O)c(O)c1 | inactive: 8.01% |
| O=C(O)C(O)c1ccc(N(CCCl)CCCl)cc1 (stereo not given) | inactive: -1% |
| O=[As](O)(c1cccs1)c1cccs1 | inactive: -4.52% |
| Cc1ccc(OCC(=O)OC2CN3CCC2CC3)cc1 (stereo not given) | inactive: -8.62% |
| O=P1(Nc2ccc(Br)cn2)COc2ccccc2OC1 | inactive: 7.06% |
| NS(=O)(=O)c1cccc(NC(=O)COC(=O)C(O)(c2ccccc2)c2ccccc2)c1 | inactive: 8.03% |
| Nc1cccc([As](=O)(O)c2ccccc2)c1 | inactive: -6.68% |
| O=P1(Nc2ncccn2)COc2ccccc2OC1 | inactive: 0.15% |
| Cc1ccc(S(=O)(=O)N(CCCN)CCCc2c(C)nc(N)[nH]c2=O)cc1 | inactive: -1.43% |
| CCCC1OP(=O)(Nc2ccccc2)OCC1CC (stereo not given) | inactive: -9.64% |
| O=C(/C=C/c1ccccc1)OC1CN2CCC1CC2 (stereo not given) | inactive: -11.3% |
| CN(C)C1(CNC(=O)c2ccc(S(C)(=O)=O)cc2)CCCCC1 | inactive: -25.8% |
